Data on 1 compound can be found in article PMC12428582, “2-Styrylquinolines with Push-Pull Architectures as Sensors for β-Amyloid Aggregation with Theranostic Properties” (International Journal of Molecular Sciences, 2025).

The chains behind the UniProt entries cited, without tags or fusion partners. Residues count along the entry.
UniProt P05067, 672-713 limits assumed: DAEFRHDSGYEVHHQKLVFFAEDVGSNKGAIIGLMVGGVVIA

This assay concerns the target T1, fibrils of β-amyloid peptide (human Aβ1–42) (Homo sapiens, UniProt P05067).
T1 construct: amyloid β protein fragment 1–42 (MW = 4514.04); purchased Merck-Sigma-Aldrich
Put plainly: Fluorescence titration of sensors with β-amyloid fibrils (Kd by non-linear fitting). As to conditions: sensor 1.0 × 10^−6 M, protein 0 to 2.0 × 10^−6 M, ICT band excitation/emission maxima, read-out: Binding constants values (Kd) and standard deviations. The method, then: Amyloid fibrils from human Aβ1–42 peptide were prepared using a procedure that combines several protocols described in the literature. A 2.2 × 10^−4 M solution of commercially available Aβ1–42 peptide was prepared in a small volume of 100 mM sodium phosphate buffer (pH = 7.04) containing EDTA in concentration 10 mM. This solution was incubated at 37 °C during 72 h in a dry bath supported on an orbital shaker working at 200 rpm. […] Subsequently, 10 μL of the freshly prepared amyloid beta fibrils (c = 1.0 × 10^−4 M) were added to each of the solutions containing the sensors. After a stabilization period of 10 min after each fibril addition at 37 °C, and then equilibration time of 5 min at room temperature, fluorescence emission spectra were recorded for each sensor at their excitation maxima. The increase in fluorescence intensity shown by compounds 6 when titrating with beta-amyloid fibrils was used to determine the protein/sensor binding constants. […]

In the case of `Cc1ccc2c(c1)sc(-c1ccc(N(C)C)cc1)[n+]2C` [ThT, Thioflavin T], the Kd was determined as 16.8 ± 0.84 µM.
